Experimental data as given in patent US7848557B2, “Rapid multi-tracer PET imaging systems and methods” (priority 2007, dated 2010).

Settings: secondary tumor region (II), same dog; consistent with an under-perfused hypoxic region

Cu-diacetyl-bis[N4-methylthiosemicarbazone] [ATSM]
retention: prolonged retention
